For experiment [1], the target named is lysosomal alfa-glucosidase (Homo sapiens, UniProt P10253). The experiment in a line: In vitro inhibition of lysosomal alfa-glucosidase (4-MU substrate, purified enzyme from spleen). It counts as biochemical.
A further experiment addresses intestinal sucrase (Homo sapiens, UniProt P14410). The experiment in a line: In vitro inhibition of intestinal sucrase. It counts as biochemical.

Molecules are shown by their SMILES. Some results are limits rather than exact numbers.

Broadly, the IC50 is the concentration needed to halve the response being measured. Read a low IC50 as inhibition by little substance.

On to `OC[C@@H]1[C@H](O)[C@H](O)[C@H](O)CN1CCCCCOCC12CC3CC(CC(C3)C1)C2` [N-(adamantane-1-yl-methoxypentyl)-L-ido-deoxynojirimycin], for which the figures for the IC50 (in experiment [1]; against intestinal sucrase) were 11 µM and > 100 µM, respectively.

On to `OC[C@@H]1[C@@H](O)[C@H](O)[C@@H](O)CN1CCCCCOCC12CC3CC(CC(C3)C1)C2`, for which the IC50 worked out at 0.1 µM in experiment [1] and 4.5 µM against intestinal sucrase.

Source of the values: patent US7528153B2 (dated 2009).
